According to patent publication US20190282656A1:

Key:
[1] = biological target: Cyclosporin A (soil fungi); assay: isothermal titration calorimetry at 25° C., dimerized CA192 titrated into CsA
[2] = biological target: Cyclosporin A (soil fungi); assay: isothermal titration calorimetry

Substance	Kd [1] [nM]	Kd [2] [nM]
CA192 (Cyclophilin-A192; CypA-A192 fusion protein)	343	–
CV96 (Cyclophilin-V96; CypA-V96 fusion protein)	–	230
